Data as given in publication PMC7549103 (ACS Medicinal Chemistry Letters, 2020).

The chains behind the UniProt entries cited, without tags or fusion partners.
UniProt Q07817, whole entry: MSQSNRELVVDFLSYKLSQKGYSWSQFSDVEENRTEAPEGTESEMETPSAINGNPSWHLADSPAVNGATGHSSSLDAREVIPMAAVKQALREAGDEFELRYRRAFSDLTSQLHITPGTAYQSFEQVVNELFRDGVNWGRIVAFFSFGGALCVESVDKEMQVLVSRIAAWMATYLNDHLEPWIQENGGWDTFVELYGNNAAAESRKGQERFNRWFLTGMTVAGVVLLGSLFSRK

Target: GST-BCL-XL (Homo sapiens, UniProt Q07817)
Assay type: binding

improvement in target affinity relative to parent 6: approximately 7 fold
Structure (SMILES): Cc1c(-c2ccc(N3CCc4cccc(C(=O)Nc5nc6ccccc6s5)c4C3)nc2C(=O)O)cnn1Cc1ccccc1 [Compound 10]
